{"source": "paper PMC5428881", "about": "(Chemical communications (Cambridge, England), 2011)", "key": {"[1]": {"assay": "CD measurement of percent helicity", "type": "physicochemical"}, "[2]": {"test_system": "HeLa cells", "assay": "Cell permeability by fluorescence activated cell sorting", "type": "cell-based", "conditions": "FACS, 10 μM N-terminally fluorescein-conjugated peptide"}, "[3]": {"test_system": "HeLa cells", "conditions": "cited from earlier work"}}, "data": [{"substance": "PDI: peptide dual inhibitor of p53-Mdm2/Mdmx interactions, sequence LTFEHYWAQLTS", "values": [{"measurement": "percent helicity", "setting": "[1]", "value": "11–13%"}, {"measurement": "cell penetration relative to the DMSO control (in words)", "setting": "[2]", "value": "minimal cell penetration"}, {"measurement": "cell permeability (in words)", "setting": "[3]", "value": "cell impermeable"}]}]}
